# Test results as given in patent publication US20230190967A1, “Method and Composition for Evaluating Response to Neurodegenerative Disease Treatment Agent” (GENUV INC., priority 2020, published 2023).
# Test system: 8-month-old 5XFAD mouse brain cortex
# Settings: 8-month-old 5XFAD cortex, 0.1 mg/kg/day
# Procedure: Age-matched wild-type (WT) mice were orally administered vehicle for 2.5 months. Blood was obtained from all the mice at the age of 8 months after completion of the treatment and collected in EDTA tubes, which were centrifuged to obtain plasma. Mice were sacrificed by the perfusion method, and the brain cortex was extracted and immediately frozen.
# Single-cell RNA sequencing analysis was performed on the 8-month-old 5XFAD mouse and wild type mouse brain cortex samples. The cortex was microdissected in HABG (Hibernate A buffer including B27 supplement and glutamine) media and digested in papain solution for 20 min at 37° C. (Brewer et al (2007). Isolation and culture of adult neurons and neurospheres. Nat Protoc 2, 1490-1498). Using a Pasteur pipette, the digested cortex was gently triturated. Cells were isolated by the density gradient method using OptiPrep (Sigma-Aldrich, D1556).
# The cell suspension was diluted with Drop-seq buffer, and Drop-seq was performed using the Chromium™ Single Cell 3′ v2 Reagent Kit (Campbell et al. (2017). A molecular census of arcuate hypothalamus and median eminence cell types. Nat Neurosci 20, 484-496). Libraries were sequenced on the Illumina HiSeq X Ten, and Read 1 was 16 bp (10×™ Barcode and 10 bp UMI). Cells with either very low or too high mRNA content (to only include: 200<gene number <3,000) or a high fraction of mitochondrial encoded transcripts (>20%) were filtered out. Using 20,056 cells, raw sequence data were aligned to the mouse (mm10) genome, and analyses including PCA, t-SNE, and graph-based clustering were performed with the Cell Ranger Single-Cell software.
# In addition to the microglial cells, the other brain cell types were also analyzed for the genes differentially expressed between the experimental groups.
smiles,measurement,setting,value
"CC(=O)Nc1cccc(-n2c(=O)n(C3CC3)c(=O)c3c(Nc4ccc(I)cc4F)n(C)c(=O)c(C)c32)c1 [trametinib, N-(3-{3-cyclopropyl-5-[(2-fluoro-4-iodophenyl)amino]-6,8-dimethyl-2,4,7-trioxo-3,4,6,7-tetrahydropyrido[4,3-d]pyrimidin-1(2H)-yl}phenyl)acetamide]",Log2(5XFAD-Tra0.1/5XFAD-Veh) Dbi (Acyl-CoA-binding protein),M. Neu (mature neuron),−1.719
same,Log2(5XFAD-Tra0.1/5XFAD-Veh) Syt1 (Synaptotagmin-1),M. Neu (mature neuron),1.127
same,"Fold change Acta2, 5XFAD-Tra 0.1 vs. 5XFAD-vehicle",microglia cluster,1.513
same,"Fold change Cst7, 5XFAD-Tra 0.1 vs. 5XFAD-vehicle",microglia cluster,−1.1315
same,"Fold change Ptgds, 5XFAD-Tra 0.1 vs. 5XFAD-vehicle",microglia cluster,1.704
same,"Fold change Rpl9-ps6, 5XFAD-Tra 0.1 vs. 5XFAD-vehicle",microglia cluster,1.591
same,"Fold change Rpl10-ps3, 5XFAD-Tra 0.1 vs. 5XFAD-vehicle",microglia cluster,1.632
same,"Fold change Spp1, 5XFAD-Tra 0.1 vs. 5XFAD-vehicle",microglia cluster,−1.5648
same,"Fold change Wfdc17, 5XFAD-Tra 0.1 vs. 5XFAD-vehicle",microglia cluster,−1.5194
